{"source": "patent EP0422215B1", "about": "“ANTIBACTERIAL AND AN[…]” (THE ROCKEFELLER UNIVERSITY, priority 1989, dated 1990)", "test_system": "Sheep Red Cells", "experiment": "lysis of sheep red blood cells (lysis assay or inhibition zone plate assay with SRC)", "format": "cell-based", "conditions": "stated in running text", "method": "These values were obtained by either the lysis assay normally used for melittin or by an adaptation of the antibacterial inhibition zone assay of the above-cited Hultmark et al. articles to plates with sheep red cells (SRC). With respect to the latter, sterile agarose plates contained 6 ml of medium with 1% agarose, 0.9% NaCl and 10% SRC suspended in Alsevers solution. A dilution series of peptide was applied in 3mm wells each loaded with 3 µl of the respective samples. The plates were incubated at 30°C for 24 h, the zones were recorded and LC values calculated as described in the Hultmark et al. articles. Clear zones were recorded after a few hours of incubation and the use of such data gave an LC value of the same order as readings after 24 h. This plate assay is faster and more convenient than the lysis assay normally used for melittin.", "data": [{"smiles": "CC[C@H](C)[C@H](NC(=O)CN)C(=O)NCC(=O)N[C@@H](C)C(=O)N[C@H](C(=O)N[C@@H](CC(C)C)C(=O)N[C@@H](CCCCN)C(=O)N[C@H](C(=O)N[C@@H](CC(C)C)C(=O)N[C@H](C(=O)N[C@H](C(=O)NCC(=O)N[C@@H](CC(C)C)C(=O)N1CCC[C@H]1C(=O)N[C@@H](C)C(=O)N[C@@H](CC(C)C)C(=O)N[C@H](C(=O)N[C@@H](CO)C(=O)N[C@@H](Cc1c[nH]c2ccccc12)C(=O)N[C@H](C(=O)N[C@@H](CCCCN)C(=O)N[C@@H](CCCNC(=N)N)C(=O)N[C@@H](CCCCN)C(=O)N[C@@H](CCCNC(=N)N)C(=O)N[C@@H](CCC(N)=O)C(=O)N[C@@H](CCC(N)=O)C(N)=O)[C@@H](C)CC)[C@@H](C)CC)[C@@H](C)O)[C@@H](C)O)C(C)C)C(C)C", "note": "[M(1-26), reference compound]", "values": [{"measurement": "concentration lytic to sheep red blood cells", "result": "4 to 6", "unit": "µM"}]}]}
